# Source: PubChem BioAssay AID624325 (Sanford-Burnham Center for Chemical Genomics, 2012)
# Chains of the proteins cited; added tags and fusions are not shown.
# UniProt P49327, whole entry: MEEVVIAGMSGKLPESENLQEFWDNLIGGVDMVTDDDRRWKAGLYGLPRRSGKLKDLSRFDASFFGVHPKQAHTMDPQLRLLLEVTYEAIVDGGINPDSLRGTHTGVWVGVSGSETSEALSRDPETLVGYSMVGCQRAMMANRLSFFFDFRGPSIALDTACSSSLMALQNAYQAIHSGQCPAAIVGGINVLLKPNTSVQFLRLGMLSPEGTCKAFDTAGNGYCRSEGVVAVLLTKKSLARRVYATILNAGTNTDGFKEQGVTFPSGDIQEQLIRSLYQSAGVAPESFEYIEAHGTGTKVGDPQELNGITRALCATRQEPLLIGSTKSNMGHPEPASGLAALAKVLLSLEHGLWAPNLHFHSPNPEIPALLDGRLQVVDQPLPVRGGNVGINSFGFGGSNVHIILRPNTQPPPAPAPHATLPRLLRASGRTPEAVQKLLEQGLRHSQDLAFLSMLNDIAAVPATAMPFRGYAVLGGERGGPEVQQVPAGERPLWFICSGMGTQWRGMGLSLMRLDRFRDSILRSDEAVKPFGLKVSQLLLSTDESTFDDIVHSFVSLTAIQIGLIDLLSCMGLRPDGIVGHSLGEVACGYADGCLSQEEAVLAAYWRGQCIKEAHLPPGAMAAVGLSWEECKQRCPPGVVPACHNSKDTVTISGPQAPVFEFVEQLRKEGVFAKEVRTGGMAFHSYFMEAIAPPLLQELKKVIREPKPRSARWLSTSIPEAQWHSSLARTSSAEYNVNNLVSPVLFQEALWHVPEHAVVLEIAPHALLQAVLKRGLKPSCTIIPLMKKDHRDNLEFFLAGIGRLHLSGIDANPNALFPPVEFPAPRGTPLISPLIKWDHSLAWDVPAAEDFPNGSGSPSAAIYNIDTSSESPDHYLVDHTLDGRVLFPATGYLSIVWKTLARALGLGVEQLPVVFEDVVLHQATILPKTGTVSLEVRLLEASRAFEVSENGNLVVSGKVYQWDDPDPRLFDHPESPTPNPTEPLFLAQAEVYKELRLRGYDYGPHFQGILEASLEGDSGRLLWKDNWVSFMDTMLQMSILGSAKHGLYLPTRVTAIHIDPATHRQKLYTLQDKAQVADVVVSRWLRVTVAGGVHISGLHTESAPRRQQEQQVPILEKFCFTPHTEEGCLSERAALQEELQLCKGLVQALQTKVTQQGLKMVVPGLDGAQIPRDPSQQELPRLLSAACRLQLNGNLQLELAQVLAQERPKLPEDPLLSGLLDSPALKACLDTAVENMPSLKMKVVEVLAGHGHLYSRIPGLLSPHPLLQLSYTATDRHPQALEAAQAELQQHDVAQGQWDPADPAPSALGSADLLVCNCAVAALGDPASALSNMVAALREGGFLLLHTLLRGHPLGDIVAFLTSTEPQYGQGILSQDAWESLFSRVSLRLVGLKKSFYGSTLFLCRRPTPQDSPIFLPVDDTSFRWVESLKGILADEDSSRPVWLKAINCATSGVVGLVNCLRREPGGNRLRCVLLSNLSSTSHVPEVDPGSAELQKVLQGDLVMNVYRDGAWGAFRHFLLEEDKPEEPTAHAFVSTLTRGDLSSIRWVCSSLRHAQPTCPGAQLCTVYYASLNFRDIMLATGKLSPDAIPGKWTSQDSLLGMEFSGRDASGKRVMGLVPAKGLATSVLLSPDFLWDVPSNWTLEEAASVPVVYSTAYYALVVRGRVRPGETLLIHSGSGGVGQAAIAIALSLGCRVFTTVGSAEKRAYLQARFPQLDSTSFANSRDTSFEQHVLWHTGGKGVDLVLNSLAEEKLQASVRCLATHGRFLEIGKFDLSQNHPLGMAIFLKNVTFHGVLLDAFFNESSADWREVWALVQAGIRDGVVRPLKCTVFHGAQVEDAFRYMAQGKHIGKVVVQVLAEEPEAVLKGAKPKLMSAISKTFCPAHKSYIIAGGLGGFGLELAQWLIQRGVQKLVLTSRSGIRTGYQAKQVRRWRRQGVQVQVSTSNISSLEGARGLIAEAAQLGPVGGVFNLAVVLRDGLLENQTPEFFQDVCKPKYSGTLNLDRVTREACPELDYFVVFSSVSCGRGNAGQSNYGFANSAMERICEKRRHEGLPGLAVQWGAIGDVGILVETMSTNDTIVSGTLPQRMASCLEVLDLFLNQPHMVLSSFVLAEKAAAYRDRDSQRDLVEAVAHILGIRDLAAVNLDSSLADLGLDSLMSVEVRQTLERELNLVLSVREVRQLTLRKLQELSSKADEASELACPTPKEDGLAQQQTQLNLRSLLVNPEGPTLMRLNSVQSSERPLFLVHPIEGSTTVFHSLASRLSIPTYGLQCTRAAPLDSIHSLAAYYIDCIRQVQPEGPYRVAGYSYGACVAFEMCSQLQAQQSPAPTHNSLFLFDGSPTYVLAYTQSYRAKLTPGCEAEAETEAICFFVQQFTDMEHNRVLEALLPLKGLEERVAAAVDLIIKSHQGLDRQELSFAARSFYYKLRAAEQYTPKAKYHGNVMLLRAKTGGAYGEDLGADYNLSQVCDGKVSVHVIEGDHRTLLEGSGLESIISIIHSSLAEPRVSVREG
# The list shows a part of the results, in another mix than the full data. The source made the active and inactive calls.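 How the source made its calls: active means compounds inhibiting the enzyme by at least 50% at 15 µM in any one of the replicates; inactive means the rest.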
# Molecular target: Fatty acid synthase (Homo sapiens) (UniProt P49327)
# Assay: inhibition of human FAS-TE enzyme activity – biochemical, fluorescence intensity, single concentration, confirmation (AID 624325);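 further: 0% = enzyme with DMSO only and 100% = wells lacking enzyme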
# Conditions: recombinant FAS-TE, OMFH fluorogenic substrate, at 15 µM, active compounds read high
row,SMILES,inhibition
1,CP(=O)(Nc1ccc(SC(F)(F)F)cc1)Oc1ccc(Cl)cc1 (stereo unspecified),inactive: 7.93%
